This note sets out measurements from PubChem BioAssay AID488847 (NMMLSC, 2010).

Protein sequences, listed by entry. Tags and fused reporters are not part of them.
UniProt P25098, whole entry: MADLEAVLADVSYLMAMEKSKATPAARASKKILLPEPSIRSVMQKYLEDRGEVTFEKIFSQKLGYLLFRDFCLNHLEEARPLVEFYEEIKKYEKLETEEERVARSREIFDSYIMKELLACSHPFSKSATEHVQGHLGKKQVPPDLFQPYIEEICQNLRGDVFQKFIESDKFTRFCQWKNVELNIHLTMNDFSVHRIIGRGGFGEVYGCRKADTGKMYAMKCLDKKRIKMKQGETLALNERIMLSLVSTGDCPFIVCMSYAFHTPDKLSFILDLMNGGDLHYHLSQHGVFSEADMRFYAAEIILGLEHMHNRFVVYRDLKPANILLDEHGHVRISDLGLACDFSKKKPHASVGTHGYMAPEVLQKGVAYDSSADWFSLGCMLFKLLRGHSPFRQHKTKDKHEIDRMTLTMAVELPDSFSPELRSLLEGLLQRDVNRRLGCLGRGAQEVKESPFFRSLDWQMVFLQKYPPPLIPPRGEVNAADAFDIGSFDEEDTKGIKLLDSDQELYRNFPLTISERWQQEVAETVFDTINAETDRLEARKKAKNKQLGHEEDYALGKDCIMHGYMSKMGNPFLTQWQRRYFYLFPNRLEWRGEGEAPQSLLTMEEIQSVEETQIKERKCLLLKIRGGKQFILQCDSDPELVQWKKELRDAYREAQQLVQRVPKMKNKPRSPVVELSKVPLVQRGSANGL

Only a part is listed here, and it is no random draw. Activity calls are given as the source filed them.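 The calls were made as follows: active = inhibition of aptamer binding above 40%, roughly 3 SD of noise, on plates passing a quality check; inactive = the rest.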

For this assay, the target named is Beta-adrenergic receptor kinase 1 (Homo sapiens) (UniProt P25098). Kind of assay: compounds blocking aptamer binding on GRK2 – biochemical, human GRK2, bead flow cytometry, HTS, primary screen (AID 488847).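 As to inhibition of aptamer binding: median bead fluorescence of bound FAM aptamer so fluorescent compounds give negative values.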 The following applies: FAM-aptamer displacement from GRK2, at 10 µM; hits give high values. (In flow cytometry, cells or beads pass a laser one at a time.)
Take `O=C(OC1CN2CCC1CC2)c1ccc(Cl)cc1` (configuration not stated): the inhibition of aptamer binding entry was “inactive”.

Take `O=[As](O)(O)c1cccnc1`: the inhibition of aptamer binding result is “inactive”.

Consider `COc1ccccc1OP(C)(=O)Nc1cccc(Br)c1` (configuration not stated), for which the inhibition of aptamer binding is inactive: 2%.

Take `Cc1cccc(OCC(=O)OC2CN3CCC2CC3)c1` (configuration not stated): the inhibition of aptamer binding result is “inactive”.

Consider `O=[As](O)(c1cccc(O)c1)c1cccc(O)c1`, for which the inhibition of aptamer binding result is “inactive”.

For the compound `Cc1cc(C)cc(OP(C)(=O)Nc2ccc(C)cc2C)c1` (configuration not stated), the inhibition of aptamer binding is inactive: 1%.

In the case of `CCOC(=O)c1ccc(NP(C)(=O)Oc2cc(C)cc(C)c2)cc1` (configuration not stated), the inhibition of aptamer binding is inactive: 1%.

In the case of `Cc1cc(C)cc(OP(C)(=O)Nc2ccccn2)c1` (configuration not stated), the inhibition of aptamer binding was inactive: 1%.

With `CP(=O)(Nc1cccc(Br)c1)Oc1ccccc1` (configuration not stated), the inhibition of aptamer binding was inactive: 1%.

As to `Cc1ccc(C)c(NP(C)(=O)Oc2ccccc2)c1` (configuration not stated), the inhibition of aptamer binding is inactive: 0%.

For the compound `CCOP(=O)(Nc1cccc2ccccc12)OCC`, the inhibition of aptamer binding result was “inactive”.

Regarding `O=C(O)c1cccc(Nc2c([N+](=O)[O-])cc([N+](=O)[O-])cc2[N+](=O)[O-])c1`, the inhibition of aptamer binding was inactive: 0%.

As for `CCOP1(=S)c2c(C)nn(CCC#N)c2N=C(c2ccccc2F)N1C` (configuration not stated), the inhibition of aptamer binding entry was “inactive”.

Regarding `O=P(Nc1nccs1)(Oc1ccccc1)Oc1ccccc1`, the inhibition of aptamer binding result is “inactive”.

`CS(=O)(=O)c1cc([N+](=O)[O-])c2no[n+]([O-])c2c1`: the inhibition of aptamer binding entry is “inactive”.

For the compound `NC(=O)Nc1ccc([As](=O)(O)O)cc1`, the inhibition of aptamer binding result was “inactive”.

Turning to `N#CCCN(C(=O)COC(=O)C(O)(c1ccccc1)c1ccccc1)c1ccc(F)cc1`, the inhibition of aptamer binding entry was “inactive”.

Take `CN(C(=O)Cc1ccccc1)[C@@H]1CC[C@]2(CCCO2)C[C@H]1N1CCCC1`: the inhibition of aptamer binding entry was “inactive”.

`CCOP1(=S)c2c(C)nn(CCC#N)c2N=C(c2ccc(F)cc2)N1C` (configuration not stated): the inhibition of aptamer binding entry is “inactive”.

Consider `CC1=NCCc2c1[nH]c1ccccc21.O=[N+]([O-])c1cc([N+](=O)[O-])c(O)c([N+](=O)[O-])c1`, for which the inhibition of aptamer binding was inactive: 0%.

With `CN(C(=O)Cc1ccc(Cl)c(Cl)c1)[C@H]1CC[C@@]2(CCCO2)C[C@@H]1N1CCCC1`, the inhibition of aptamer binding entry was “inactive”.

On to `Cc1ccc(C(=O)OC2CN3CCC2CC3)cc1` (configuration not stated), for which the inhibition of aptamer binding result is “inactive”.

With `COc1cc(C2NCCC3(OCCO3)C2(C)C)cc(OC)c1OC.O=[N+]([O-])c1cc([N+](=O)[O-])c(O)c([N+](=O)[O-])c1` (configuration not stated), the inhibition of aptamer binding result is “inactive”.

With `CC1=C2N=C(C=C3N=C(C(C)=C4[N-][C@@](C)([C@@H]5N=C1[C@](C)(CCC(=O)NC[C@@H](C)OP(=O)([O-])O[C@H]1[C@@H](O)[C@@H](n6cnc7cc(C)c(C)cc76)O[C@@H]1CO)[C@H]5CC(N)=O)[C@@](C)(CC(N)=O)[C@@H]4CCC(N)=O)[C@@](C)(CC(N)=O)[C@@H]3CCC(N)=O)C(C)(C)[C@@H]2CCC(N)=O.[C-]#N.[Co+3]`, the inhibition of aptamer binding was inactive: 5%.

With `CN(C)C1(CNC(=O)c2ccc(S(C)(=O)=O)cc2)CCCCC1`, the inhibition of aptamer binding entry was “inactive”.

For `O=[N+]([O-])c1cc([N+](=O)[O-])c(Nc2nnnn2CCO)c([N+](=O)[O-])c1`, the inhibition of aptamer binding was inactive: 0%.

As to `CCOC(=O)C(CC)C1=NC(C)(C)Cc2ccccc21.O=[N+]([O-])c1cc([N+](=O)[O-])c(O)c([N+](=O)[O-])c1` (configuration not stated), the inhibition of aptamer binding is inactive: 0%.

For `CN1CCCCC1COC(=O)C1(O)c2ccccc2CCc2ccccc21` (configuration not stated), the inhibition of aptamer binding result is “inactive”.

Regarding `COc1ccccc1OP(C)(=O)Nc1c(C)cccc1C` (configuration not stated), the inhibition of aptamer binding is inactive: 6%.

As to `O=P1(Nc2ncccn2)COc2ccccc2OC1`, the inhibition of aptamer binding result is “inactive”.

Regarding `CCCOc1ccc(NP(C)(=O)Oc2ccc(Cl)cc2)cc1` (configuration not stated), the inhibition of aptamer binding was inactive: 1%.

`CP(=O)(Nc1ccc(SC(F)(F)F)cc1)Oc1ccccc1` (configuration not stated): the inhibition of aptamer binding is inactive: 0%.

Take `Nc1cccc([As](=O)(O)c2ccccc2)c1`: the inhibition of aptamer binding entry is “inactive”.

With `O=P1(Nc2ccccn2)COc2ccccc2OC1`, the inhibition of aptamer binding entry is “inactive”.

For the compound `O=[N+]([O-])c1cc([N+](=O)[O-])c(-n2nnc3ccccc32)c([N+](=O)[O-])c1`, the inhibition of aptamer binding was inactive: 1%.

With `CCOP(=O)(NC(=NC(C)c1ccccc1)NC(C)c1ccccc1)OCC` (configuration not stated), the inhibition of aptamer binding result is “inactive”.

For `CCOP(=O)(Nc1ccc(C)cn1)OCC`, the inhibition of aptamer binding result is “inactive”.

Turning to `CN(CCCl)Cc1cc(Cl)c(NC2=NCCN2)c(Cl)c1`, the inhibition of aptamer binding entry was “inactive”.

For the compound `O=[N+]([O-])c1cc([N+](=O)[O-])c(-c2cnn(-c3ccccc3)c2)c([N+](=O)[O-])c1`, the inhibition of aptamer binding was inactive: 2%.

As for `COc1ccccc1CNC(=O)COC(=O)C(O)(c1ccccc1)c1ccccc1`, the inhibition of aptamer binding entry is “inactive”.

With `CN(C(=O)Cc1ccc(Cl)c(Cl)c1)[C@@H]1CCCC[C@H]1N1CCCC1`, the inhibition of aptamer binding entry was “inactive”.

For the compound `CC(C)/C=N\N=C(\N)N[N+](=O)[O-]`, the inhibition of aptamer binding result was “inactive”.

With `Cc1nc2ccc3ccccc3c2s1.O=[N+]([O-])c1cc([N+](=O)[O-])c(O)c([N+](=O)[O-])c1`, the inhibition of aptamer binding was inactive: 2%.

As for `CP(=O)(Nc1ccc(SC(F)(F)F)cc1)Oc1ccc(Cl)cc1` (configuration not stated), the inhibition of aptamer binding was inactive: 0%.

For the compound `Cc1cccc(C)c1OP(C)(=O)Nc1ccc(SC(F)(F)F)cc1` (configuration not stated), the inhibition of aptamer binding was inactive: 0%.

Regarding `CP(=O)(Oc1ccccc1)OC(c1ccccc1)C(F)(F)F` (configuration not stated), the inhibition of aptamer binding was inactive: 1%.

On to `CP(=O)(NC(=O)Nc1ccccc1)Oc1ccccc1` (configuration not stated), for which the inhibition of aptamer binding is inactive: 1%.

Consider `O=C(COc1ccccc1)OC1CN2CCC1CC2` (configuration not stated), for which the inhibition of aptamer binding result is “inactive”.

`CCc1ccc(OP(C)(=O)N2CCN(c3ccc([N+](=O)[O-])cc3)CC2)cc1` (configuration not stated): the inhibition of aptamer binding was inactive: 0%.

With `Cc1cc(C)cc(OP(C)(=O)Nc2ccc(SC(F)(F)F)cc2)c1` (configuration not stated), the inhibition of aptamer binding was inactive: 0%.

Take `O=C(Nc1ccncc1[N+](=O)[O-])c1ccc([N+](=O)[O-])cc1[N+](=O)[O-]`: the inhibition of aptamer binding result was “inactive”.

As for `O=C(OC1CN2CCC1CC2)c1cccc([N+](=O)[O-])c1` (configuration not stated), the inhibition of aptamer binding result was “inactive”.

As for `CCOP(C)(=S)SCC(=O)NC(C)C(=O)O` (configuration not stated), the inhibition of aptamer binding is inactive: 2%.

As for `O=[N+]([O-])c1cc([N+](=O)[O-])c(O)c([N+](=O)[O-])c1.c1ccc(Oc2ccncc2)cc1`, the inhibition of aptamer binding was inactive: 0%.

Regarding `CCOC(=O)c1ccc(NP(C)(=O)Oc2ccc(OC)cc2)cc1` (configuration not stated), the inhibition of aptamer binding is inactive: 1%.

In the case of `CP(=O)(Nc1ccccn1)Oc1ccc(Cl)cc1` (configuration not stated), the inhibition of aptamer binding was inactive: 0%.

Turning to `CP(=S)(Nn1cnnc1)Oc1ccccc1` (configuration not stated), the inhibition of aptamer binding is inactive: 0%.

For the compound `CCOC(=O)Nc1cccc([As](=O)(O)O)c1`, the inhibition of aptamer binding result is “inactive”.

`COc1ccccc1OP(C)(=O)Nc1ccccc1` (configuration not stated): the inhibition of aptamer binding is inactive: 0%.

On to `CP(=O)(Nc1ccccc1Br)Oc1ccccc1` (configuration not stated), for which the inhibition of aptamer binding was inactive: 0%.

Regarding `O=[N+]([O-])c1cc([N+](=O)[O-])c(Nc2cccnc2)c([N+](=O)[O-])c1`, the inhibition of aptamer binding is inactive: 0%.

In the case of `COc1cc(C(=O)NCC2(N3CCOCC3)CCCCC2)ccc1OCC(C)C`, the inhibition of aptamer binding entry was “inactive”.
